What follows are compounds tested against XIAP BIR-3 (Homo sapiens, UniProt P98170) (assay: Fluorescence polarization binding to XIAP BIR-3 (competition with AbuRPF-K(5-Fam)-NH2)). Details: XIAP BIR-3 (default where cell does not indicate otherwise); reported as range class.
Procedure: (§1) The binding affinities of the compounds are reported as a Kd value. Briefly, various concentrations of test peptides were mixed with 5 nM of the fluorescently labeled peptide (i.e., a mutated N-terminal Smac peptide—AbuRPF-K(5-Fam)-NH2) and 40 nM of the BIR3 for 15 min at RT in […] of 0.1M Potassium Phosphate buffer, pH 7.5 containing […] bovine g-globulin. Following incubation, the polarization values (mP) were measured on a Victor2V (available from PerkinElmer Life Sciences) using a 485 nm excitation filter and a 520 nm emission filter. The reported Kd values are supplied as ranges (A=<0.1 μM, B=0.1 μM to C=>1 μM to 10 μM, D=>10 μM) and, unless otherwise indicated, are the Kd for XIAP BIR-3.

Amino acid sequences for entries named in this document (tags omitted). Residues count along the entry.
UniProt P98170, 241-356 limits assumed: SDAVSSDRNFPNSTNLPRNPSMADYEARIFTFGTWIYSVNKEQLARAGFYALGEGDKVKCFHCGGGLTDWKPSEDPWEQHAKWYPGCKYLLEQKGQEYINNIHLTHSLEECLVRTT
UniProt Q13490, 266-343 limits assumed: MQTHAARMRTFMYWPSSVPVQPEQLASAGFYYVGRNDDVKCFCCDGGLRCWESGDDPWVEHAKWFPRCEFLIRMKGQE

| SMILES | Kd [nM] |
| --- | --- |
| CC[C@H](NC)C(=O)N[C@H](C(=O)N1CCC[C@H]1Cc1c[nH]c2ncccc12)C(C)(C)C | < 100 |
| CCN[C@@H](C)C(=O)N[C@H](C(=O)N1CCC[C@H]1Cc1c[nH]c2ncccc12)C(C)(C)C | < 100 |
| CC[C@H](NC)C(=O)N[C@H](C(=O)N1CC[C@H](OC)[C@H]1Cc1cn(C)c2cc(F)ccc12)C(C)(C)C | > 10000 |
| CN[C@@H](C)C(=O)N[C@H](C(=O)N1CC[C@H](OC)[C@H]1Cc1c[nH]c2ncccc12)C(C)(C)C | 1000 to 10000 |
| CN[C@@H](C)C(=O)N[C@H](C(=O)N1CC[C@H](OC)[C@H]1Cc1cn(C)c2cc(F)ccc12)C(C)(C)C | > 10000 |
| CCN[C@@H](CC)C(=O)N[C@H](C(=O)N1CCC[C@H]1Cc1c[nH]c2ncccc12)C(C)(C)C | > 100 |
| CCN[C@@H](C)C(=O)N[C@H](C(=O)N1CC[C@H](OC)[C@H]1Cc1cn(C)c2cc(F)ccc12)C(C)(C)C | > 10000 |
| CN[C@@H](CO)C(=O)N[C@H](C(=O)N1CCC[C@H]1Cc1c[nH]c2ncccc12)[C@@H](C)OC | < 100 |

More lines, now with the values ahead:

| Kd [nM] | SMILES |
| --- | --- |
| < 100 | CCN[C@@H](C)C(=O)N[C@H](C(=O)N1CC[C@H](O)[C@H]1Cc1c[nH]c2cc(F)ccc12)[C@@H](C)OC |
| < 100 | CN[C@@H](C)C(=O)N[C@H](C(=O)N1CC[C@@H](OC)[C@H]1Cc1c[nH]c2cc(F)ccc12)[C@@H](C)OC |
| < 100 | CN[C@@H](C)C(=O)N[C@H](C(=O)N1CC[C@@H](O)[C@H]1Cc1c[nH]c2cc(F)ccc12)[C@@H](C)OC |
| < 100 | CN[C@@H](C)C(=O)N[C@H](C(=O)N1CC[C@H](O)[C@H]1Cc1c[nH]c2cc(F)ccc12)C1CCCCC1 |

These compounds were tested against cIAP-1 BIR-3 (Homo sapiens, UniProt Q13490) (assay: Fluorescence polarization binding to cIAP-1 BIR-3 (competition with AbuRPF-K(5-Fam)-NH2)). Details: cells marked (cIAP-1): cIAP-1 BIR-3; reported as range class.
Procedure: as §1

| SMILES | Kd [nM] |
| --- | --- |
| CC[C@H](NC)C(=O)N[C@H](C(=O)N1CC[C@@H](O)[C@H]1Cc1c(-c2ccc(F)cc2)[nH]c2ccccc12)C(C)C | < 100 |
| CN[C@@H](C)C(=O)N[C@H](C(=O)N1C[C@@H](O)C[C@H]1C[C@H]1CN(C(C)=O)c2ccccc21)C1CCCCC1 | < 100 |
| CC[C@H](NC)C(=O)N[C@@H](COC)C(=O)N1CC[C@@H](O)[C@H]1Cc1c(-c2ccc(F)cc2)[nH]c2ccccc12 | > 100 |
| CCc1ccc2c(c1)[C@H](C[C@@H]1C[C@H](O)CN1C(=O)[C@@H](NC(=O)[C@H](C)NC)C1CCCCC1)CN2C(C)=O | < 100 |

Reference: patent US20110288116A1, “IAP INHIBITORS” (TETRALOGIC PHARMACEUITCAL CORPORATION, priority 2008, published 2011)
